Results: article PMC3513622 (Antiviral research, 2012)

What was measured:
Akata cells = assay: Cell viability of Akata cells, modified MTS assay; conditions: 48 hours, 0.0005-30μM

Compound | TI (therapeutic index, CC50/IC50 ratio) (Epstein-Barr virus (EBV)) | CC50 (Akata cells) [nM]
Nc1ncnc2c1c(I)cn2[C@@H]1O[C@H](CO)[C@@H](O)[C@H]1O [5-Iodotubercidin] | 1 | 1120
Cc1ccc(S(=O)(=O)/C=C/C#N)cc1 [BAY 11-7082] | 13 | 
COC(=O)/C=C/c1cc(O)ccc1O [Erbstatin analog] | 2 | 3900
